# Measurements published in US12195437B2, “Lipophenolic flavonoid derivatives useful to reduce carbonyl and oxidative stresses (COS)” (Centre National de la Recherche Scientifique (CNRS), priority 2018, dated 2025).
# System: ARPE-19 cells
# Assay: Cytotoxicity of lipophenols on ARPE-19 cells (MTT)
# Assay type: cell-based
# Conditions: 24 h, concentrations up to 160 μM
# Method: Cell viability was determined by MTT colorimetric assay. Cells were incubated for 2 h with MTT reagent (0.5 mg/mL). During this incubation time, dehydrogenases of living cells reduced MTT to insoluble purple formazan, which was then dissolved in DMSO. The absorbance at 570 nm and 655 nm of individual wells was measured using a microplate reader (BioRad 550). The percentage of viable cells was calculated as [(OD570 sample−OD655 sample)/(OD570 control−OD655 control)]×100%.
# ARPE-19 cells were plated into 96-well plates (4×10^4 cells/well) and cultured for 24 h to reach confluence before lipophenol treatment. […] Control cells were incubated with DMSO (0.2%). The viability of the cells was determined using a MTT colorimetric assay. All samples are expressed as percentage of viability compared to non-treated control cells (normalized at 100% survival).
# Results on the measurement of lipophenol toxicity will be discussed in % cell survival at a given lipophenol concentration compared to untreated cells. […] Any concentration of lipophenol resulting in cell survival of less than 5% (zero survival) will be considered a highly toxic concentration.
substance,measurement,value
(+)-catechin [reference compound],toxicity (in words),no toxicity
